Assays:
μ receptor = biological target: T1, μ receptor (Rattus norvegicus, UniProt P33535); assay: μ receptor binding assay, [3H]DAMGO competition, crude rat brain plasma membranes; conditions: rat brain homogenate, 1.85 nM [3H]DAMGO, 4° C., 90 minutes; FIG. 3
T1 construct: frozen rat brains (−80° C.) were homogenized in 40 volumes of standard Tris buffer; from tissue; host or cells: rat brain (crude plasma membranes)

Chains of the proteins cited; added tags and fusions are not shown.
UniProt P33535, whole entry: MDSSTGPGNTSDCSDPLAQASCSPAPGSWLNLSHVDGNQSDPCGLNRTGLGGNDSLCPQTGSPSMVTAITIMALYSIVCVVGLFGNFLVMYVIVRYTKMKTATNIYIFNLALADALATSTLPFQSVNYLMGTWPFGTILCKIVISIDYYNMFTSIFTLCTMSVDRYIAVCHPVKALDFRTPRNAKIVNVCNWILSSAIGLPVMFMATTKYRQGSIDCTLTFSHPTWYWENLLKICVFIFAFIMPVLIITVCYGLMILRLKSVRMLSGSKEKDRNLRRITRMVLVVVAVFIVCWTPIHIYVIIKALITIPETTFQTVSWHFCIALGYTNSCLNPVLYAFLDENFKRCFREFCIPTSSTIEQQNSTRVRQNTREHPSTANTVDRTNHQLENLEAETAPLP
UniProt P14600, whole entry: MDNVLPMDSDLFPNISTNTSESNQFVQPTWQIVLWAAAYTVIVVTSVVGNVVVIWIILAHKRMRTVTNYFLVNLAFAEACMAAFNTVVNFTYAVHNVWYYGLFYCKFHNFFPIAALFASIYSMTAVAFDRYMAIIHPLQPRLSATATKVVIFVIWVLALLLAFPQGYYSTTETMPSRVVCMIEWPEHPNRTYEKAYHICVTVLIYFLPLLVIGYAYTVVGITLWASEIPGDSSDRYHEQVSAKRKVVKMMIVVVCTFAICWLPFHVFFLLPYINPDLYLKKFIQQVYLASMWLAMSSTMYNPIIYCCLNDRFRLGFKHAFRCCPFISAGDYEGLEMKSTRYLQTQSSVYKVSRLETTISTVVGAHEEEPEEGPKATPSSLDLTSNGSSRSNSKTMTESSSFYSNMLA

NK1 receptor = biological target: T2, NK1 receptor (Rattus norvegicus, UniProt P14600); assay: SP (NK1) receptor binding assay, [125I]BH-SP competition, crude rat brain plasma membranes
T2 construct: The same procedure was followed for the SP receptor except the wash with NaCl was eliminated; from tissue; host or cells: rat brain (crude plasma membranes)

SMILES: C[C@@H](NC(=O)[C@@H](N)Cc1ccc(O)cc1)C(=O)NCC(=O)N(C)[C@@H](Cc1ccccc1)C(=O)NCCO [DAMGO, Tyr-(D)Ala-Gly-Phe-NHCH2CH2OH]
- Kd (μ receptor): ~3 nM

SMILES: CSCC[C@H](NC(=O)[C@H](CC(C)C)NC(=O)CNC(=O)[C@H](Cc1ccccc1)NC(=O)[C@H](Cc1ccccc1)NC(=O)[C@H](CCC(N)=O)NC(=O)[C@H](CCC(N)=O)NC(=O)[C@@H]1CCCN1C(=O)[C@H](CCCCN)NC(=O)[C@@H]1CCCN1C(=O)[C@@H](N)CCCN=C(N)N)C(N)=O [SP]
- Kd (NK1 receptor): ~0.03 nM

Source: US6759520B1, “Chimeric analgesic peptides” (priority 1999, dated 2004)
